# AlphaSeq binding of Ab-14 light chain variants to a spike HR2 peptide

Antigen: PDVDLGDISGINAS, a 14-residue peptide of the SARS-CoV-2 spike HR2 region.

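The variants were designed computationally from a first round of random CDR variants and then made and measured. Several design methods are mixed in this list. AlphaSeq pools MATa yeast showing the antibodies with MATalpha yeast showing the peptide. The frequency of each diploid, read from paired DNA barcodes, reflects how well the two displayed proteins bind. Scores were corrected for input abundance and mapped to Kd with protein pairs of known affinity run in the same pool. Each pool was mated in six replicate cultures.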

Parent scFv Ab-14: VH joined to VL by a (GGGGS)3 linker. Changes lie in the light chain CDRs alone.
VH: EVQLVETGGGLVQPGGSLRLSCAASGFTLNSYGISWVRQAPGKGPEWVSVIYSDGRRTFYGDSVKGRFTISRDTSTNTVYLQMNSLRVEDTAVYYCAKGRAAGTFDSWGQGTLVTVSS
VL: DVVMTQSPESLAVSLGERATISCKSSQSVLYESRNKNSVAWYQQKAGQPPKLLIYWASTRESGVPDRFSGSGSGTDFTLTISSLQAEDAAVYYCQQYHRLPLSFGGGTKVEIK

Substitutions are numbered in sequence along the VL above, starting at 1 (not Kabat). This list holds designs with at most six substitutions. Affinities are written as log10 Kd with Kd in nM; a lower number is a better binder. "ND" marks a missing value. The strain was present, yet no cells mated with the target were sequenced in that replicate, which points to weak or no binding.

- S26E/E32D/K36I/W56G: 0.09, 0.04, -0.11, -0.38, -0.30, 0.25 (controls 0 of 18)
- S25L/V29W/N35M/S38N/W56N: 0.32, 0.05, -0.08, -0.06, 0.03, 0.31 (controls 3 of 18)
- S25L/W56E/T59C: 0.00, -0.38, -0.24, -0.31, -0.50, -0.20 (controls 1 of 18)
- Y31D/Q96T: 1.38, 1.18, 0.62, 1.65, 1.18, 1.68 (controls 0 of 18)
- S25A/S26L/W56H/S62D: 0.37, 0.19, 0.17, -0.01, -0.13, 0.37 (controls 0 of 18)
- S25Q/S38A/W56D/Q96T/R99W: 1.10, 0.56, 0.96, 0.69, 1.01, 1.00 (controls 1 of 18)
- Y31G/R34L/N35Y: 1.57, 1.61, 1.58, 1.95, 0.96, 1.71 (controls 0 of 18)
- Q27I/V29Y/Y31G/E32G/S33K/W56E: 0.86, 0.90, 1.28, 1.35, 1.12, 1.18 (controls 1 of 18)
- S25L/S26E/V29C/W56N: 0.41, 0.37, 0.24, 0.14, 0.25, 0.16 (controls 4 of 18)
- S25L/S26Q/V29W/W56N/T59Q/S62D: 0.00, -0.16, -0.11, -0.32, -0.30, -0.04 (controls 0 of 18)
- S25L/V29W/L30E/W56N/T59Q/S62Q: 0.24, -0.12, 0.06, -0.17, 0.23, 0.16 (controls 0 of 18)
- S25Q/V29D/R34V/W56D: 0.96, 0.20, 0.23, 0.24, 0.20, 0.24 (controls 0 of 18)
- S25I/S26F/L30Q/W56N/T59D/E61F: 0.40, 0.16, 0.19, 0.10, 0.32, 0.29 (controls 2 of 18)
- S25Q/W56M/H98E: 1.28, 0.87, 0.95, 0.59, 0.68, 0.97 (controls 0 of 18)
- S25F/N35L/S38G/W56N: 0.38, 0.05, 0.09, 0.05, -0.04, 0.22 (controls 4 of 18)
- S25F/S26E/V29Q/L30G/W56N: -0.33, -0.16, -0.48, -0.55, -0.46, -0.21 (controls 2 of 18)
- S25V/Y31Q/E32Q/K36S/W56E/S62E: 0.12, -0.08, -0.17, -0.38, -0.16, -0.13 (controls 1 of 18)
- S25V/W56E/S62E: -0.12, -0.09, -0.32, -0.30, -0.41, -0.36 (controls 1 of 18)
- S38F/S62D: ND, ND, ND, ND, ND, ND (controls 0 of 18)
- S25L/S28L/V29W/N35M/W56N: 0.88, 0.62, 0.33, 0.46, 0.48, 0.75 (controls 3 of 18)
- S25I/S28A/V29Y/W56Q/S58N/T59Y: -0.06, -0.13, -0.16, -0.31, -0.05, -0.08 (controls 1 of 18)
- K24H/Q27P/L30E/W56N/T59F: 0.92, 0.65, 1.24, 0.89, 0.98, 1.02 (controls 0 of 18)
- S25I/W56E/Y97I/H98S/S103C: 0.60, 0.11, 0.03, 0.41, 0.88, 0.38 (controls 1 of 18)
- Q27W/V29W/S33D/N35V/W56G: 0.76, 0.29, 0.44, 0.20, 0.49, 0.04 (controls 1 of 18)
- S25L/S26Q/V29F/W56N/T59Q/E61L: -0.09, -0.49, -0.25, -0.36, -0.61, -0.36 (controls 0 of 18)
- L30P/K36V/W56K: 0.30, 0.38, 0.15, 0.04, 0.31, 0.41 (controls 2 of 18)
- S25V/R34T: ND, 1.35, 1.73, 1.07, 1.43, 1.04 (controls 0 of 18)
- S25V/W56N/S103H: -0.08, -0.17, -0.25, -0.32, -0.29, -0.09 (controls 3 of 18)
- V29W/W56G/S62E: -0.35, -0.60, -0.58, -0.84, -0.67, -0.49 (controls 1 of 18)
- S25L/S26Y/Q27P/V29Y/W56Q/R99L: 0.36, 0.10, -0.30, -0.06, 0.06, -0.01 (controls 0 of 18)
- S25L/S33M/N35M/W56N: 0.87, 0.69, 0.72, 0.62, 0.57, 0.73 (controls 1 of 18)
- S25V/S26P/W56H/S62D/Q96S/S103Y: 0.87, 0.70, 0.44, 0.53, 0.68, 0.84 (controls 3 of 18)
- S25R/W56Q/S62H/R99D: 0.29, 0.29, 0.41, 0.11, 0.16, 0.93 (controls 1 of 18)
- S25L/V29W/W56G/A57G: -0.13, -0.13, -0.27, -0.25, -0.29, -0.06 (controls 1 of 18)
- S25V/S26Q/S28Q/R34N: 1.49, 0.74, 0.49, 1.07, 1.94, 1.43 (controls 0 of 18)
- S25F/S28K/S33H/N35D/W56N: 0.70, 0.13, 0.20, 0.27, 0.39, 0.56 (controls 1 of 18)
- Q27W/V29Y/W56E: 0.04, -0.36, -0.32, -0.33, -0.26, -0.23 (controls 0 of 18)
- Q27I/V29Y/R34M/W56Y/A57G: 1.16, 0.74, 0.82, 0.89, 0.74, 0.84 (controls 1 of 18)
- S25M/W56G: 0.02, -0.25, -0.21, -0.34, -0.28, -0.15 (controls 2 of 18)
- S25L/N35A/W56N/E61M: 0.30, 0.20, -0.01, -0.09, -0.12, 0.20 (controls 4 of 18)
- S25C/W56M: 0.74, 0.74, 0.52, 0.62, 0.57, 0.63 (controls 2 of 18)
- Y31D/W56Y: 0.60, 0.50, 0.58, 0.33, 0.56, 0.76 (controls 0 of 18)
- Y31G/S33Q/W56D/P101C: 2.12, 1.50, 1.87, 1.46, 2.19, 1.95 (controls 1 of 18)
- S25V/Q27I/V29Y/Y31L/W56E/S58V: -0.24, -0.16, -0.21, -0.44, 0.12, 0.07 (controls 0 of 18)
- S25V/S28W/N35T/W56N: -0.09, -0.18, 0.05, -0.18, -0.04, 0.05 (controls 0 of 18)
- W56S/Y97K/L100D: 1.09, 1.08, 0.41, 0.95, 0.73, 1.18 (controls 0 of 18)
- S25N/V29L/S62F: ND, ND, ND, 1.20, ND, ND (controls 0 of 18)
- S25C/S33E/N35M/H98A: 0.64, ND, ND, 2.39, 0.93, ND (controls 0 of 18)

The closing 3 entries, repeated:

| changes | replicates, log10 nM | empty controls |
|---|---|---|
| W56S/Y97K/L100D | 1.09, 1.08, 0.41, 0.95, 0.73, 1.18 | 0 of 18 |
| S25N/V29L/S62F | ND, ND, ND, 1.20, ND, ND | 0 of 18 |
| S25C/S33E/N35M/H98A | 0.64, ND, ND, 2.39, 0.93, ND | 0 of 18 |

The authors' rule: three or more of the six replicates give a measured affinity, fewer mean a poor binder. Nonspecific signal, from three strains lacking the peptide, appeared in 4% of pairings of all light chain designs, centred on 2.64 (5% of these signals below 1.59); values are not corrected for it. For each scFv, signals with the empty controls are counted beside the result. A sequence measured in both rounds can read differently, since the two assays cover different ranges.

From the AlphaSeq antibody data of Li et al. 2023 (doi:10.1038/s41467-023-39022-2), copy in the FLAb collection.